These results are taken from patent US9663526B2, “Aminopyrimidinyl compounds” (Pfizer Inc., priority 2014, dated 2017).

By UniProt entry, the sequences of proteins in these tests, tags left out. Residues count along the entry.
UniProt P23458, 875-1153: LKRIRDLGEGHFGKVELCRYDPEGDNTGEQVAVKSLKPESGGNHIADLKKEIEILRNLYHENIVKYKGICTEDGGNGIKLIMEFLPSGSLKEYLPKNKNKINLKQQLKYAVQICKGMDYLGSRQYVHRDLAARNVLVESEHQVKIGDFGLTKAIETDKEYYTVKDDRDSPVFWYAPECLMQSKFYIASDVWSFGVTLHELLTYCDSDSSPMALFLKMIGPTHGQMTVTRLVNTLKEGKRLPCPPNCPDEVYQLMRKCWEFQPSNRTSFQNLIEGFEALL
UniProt P29597, 897-1176: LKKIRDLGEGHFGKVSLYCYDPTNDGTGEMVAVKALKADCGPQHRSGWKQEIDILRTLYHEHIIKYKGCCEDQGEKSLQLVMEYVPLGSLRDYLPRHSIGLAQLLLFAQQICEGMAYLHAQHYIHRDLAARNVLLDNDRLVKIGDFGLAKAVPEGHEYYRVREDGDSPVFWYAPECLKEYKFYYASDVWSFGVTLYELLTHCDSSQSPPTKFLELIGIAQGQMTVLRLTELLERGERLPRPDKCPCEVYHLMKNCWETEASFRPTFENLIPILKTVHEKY

In one assay the target is recombinant human kinase domain of JAK1 (Homo sapiens (Human), UniProt P23458). As to the kind of experiment: JAK Caliper enzyme assay at 1 mM ATP (JAK1).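 Further: microfluidic mobility-shift readout of synthetic fluorescent peptide phosphorylation, percent product converted from peak height, inhibition relative to DMSO-only wells as uninhibited baseline, room temperature incubation.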 It is filed as biochemical.
As to `C[C@@H]1[C@@H]2CN(c3nc(Nc4cnc([C@@H](C)O)c(Cl)c4)ncc3F)C[C@]12NC(=O)C1CC1` [Example 106, N-{(1S,5R,6R)-3-[2-({5-chloro-6-[(1R)-1-hydroxyethyl]pyridin-3-yl}amino)-5-fluoropyrimidin-4-yl]-6-methyl-3-azabicyclo[3.1.0]hex-1-yl}cyclopropanecarboxamide], the IC50 came to 2300 nM.

A further assay addresses recombinant human kinase domain of TYK2 (Homo sapiens (Human), UniProt P29597). As to the kind of experiment: JAK Caliper enzyme assay at 1 mM ATP (TYK2).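 Further: microfluidic mobility-shift readout of synthetic peptide phosphorylation by TYK2, tuned to 20–30% conversion at room temperature, reaction stopped with EDTA, DMSO-only wells as uninhibited baseline.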 It counts as biochemical.
Turning to `Cc1cc(Nc2nccc(N3C[C@H]4CC[C@@H](C3)N4C(=O)C3CC3(F)F)n2)cnc1C(N)=O` (stereo partly drawn) [Example 34, 5-[(4-{(1R,5S)-8-[(2,2-difluorocyclopropyl)carbonyl]-3,8-diazabicyclo[3.2.1]oct-3-yl}pyrimidin-2-yl)amino]-3-methylpyridine-2-carboxamide], the IC50 was found to be 36 nM.

As to `CNC(=O)c1ncc(Nc2nccc(N3C[C@H]4CC[C@@H](C3)N4C(=O)NCC#N)n2)cc1C` [Example 90, (1R,5S)—N-(cyanomethyl)-3-(2-{[5-methyl-6-(methylcarbamoyl)pyridin-3-yl]amino}pyrimidin-4-yl)-3,8-diazabicyclo[3.2.1]octane-8-carboxamide], the IC50 worked out at 14 nM.

On to `CCNC(=O)c1ccc(Nc2ncc(F)c(N3C[C@H]4CC[C@@H](C3)N4C(=O)C(F)(F)F)n2)cc1C` [Example 72, N-ethyl-4-({5-fluoro-4-[8-(trifluoroacetyl)-3,8-diazabicyclo[3.2.1]oct-3-yl]pyrimidin-2-yl}amino)-2-methylbenzamide], for which the IC50 was 6 nM.

For the molecule `Cc1cnc(Nc2ccc(OCCO)nc2)nc1N1C[C@H]2[C@@H](C)[C@@]2(NC(=O)[C@H]2C[C@@H]2C#N)C1` [Example 98, (1S,2S)-2-cyano-N-[(1S,5R,6R)-3-(2-{[6-(2-hydroxyethoxy)pyridin-3-yl]amino}-5-methylpyrimidin-4-yl)-6-methyl-3-azabicyclo[3.1.0]hex-1-yl]cyclopropanecarboxamide], the IC50 stood at 19 nM.

`CNC(=O)c1ncc(Nc2nccc(N3C[C@H]4CC[C@@H](C3)N4C(=O)[C@H]3C[C@@H]3F)n2)cc1C` [Example 44, 5-({4-[(1R,5S)-8-{[(1R,2S)-2-fluorocyclopropyl]carbonyl}-3,8-diazabicyclo[3.2.1]oct-3-yl]pyrimidin-2-yl}amino)-N,3-dimethylpyridine-2-carboxamide]: the IC50 was determined as 72 nM.
